# Apparent affinities of Ab-14 variants for a coronavirus HR2 peptide

The target is the same throughout: PDVDLGDISGINAS, from the HR2 region of SARS-CoV-2 spike.

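The starting antibody came from a phage panning campaign against this peptide. In library AAYL49, one, two or three CDR residues were substituted; doubles and triples were drawn at random. AlphaSeq pools MATa yeast showing the antibodies with MATalpha yeast showing the peptide. Mating (16 h, 30 °C) was followed by selection of diploids and sequencing of their barcodes. A regression on co-assayed BCL2-family reference pairs converts the normalised counts of each replicate to an apparent Kd. Mating was done three times.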

The variants keep the light chain, the linker and the frameworks of Ab-14 (scFv order VH, the linker GGGGSGGGGSGGGGS, VL).
VH: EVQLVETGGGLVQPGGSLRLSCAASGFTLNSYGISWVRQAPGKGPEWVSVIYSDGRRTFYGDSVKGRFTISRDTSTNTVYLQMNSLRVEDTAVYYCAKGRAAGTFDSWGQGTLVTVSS
VL: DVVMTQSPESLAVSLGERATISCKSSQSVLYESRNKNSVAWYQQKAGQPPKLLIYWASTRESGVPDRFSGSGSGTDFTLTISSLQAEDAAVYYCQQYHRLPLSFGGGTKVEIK

Substitutions are numbered in sequence along the VH above, starting at 1 (not Kabat).
This list gathers variants with a substitution at F59 (VH, numbered from residue 1).
The Kd shown is the geometric mean over detected replicates; a lower Kd is a better binder.
An entry "no signal" has no value in the source: the pair was not observed among the diploids in any replicate. This suggests poor binding but is not conclusive.
Empty control strains, which show no peptide, gave a signal in 15% of pairings with library AAYL49; the median was 11 µM and 95% of these signals were weaker than 680 nM. No background was subtracted.

For G26D+F59A, the assay gave 3.2 nM (3 of 3 replicates). Variant R57Q+F59G showed 2.1 µM (3 of 3 replicates). Variant G55E+F59A showed 27 µM (1 of 3 replicates). Variant F59A+S63Q+V64F gave 1.4 nM (3 of 3 replicates). Variant F59N+S107K showed 160 nM (3 of 3 replicates).

Variant G33K+F59S showed no signal (0 of 3 replicates). Variant S31C+S35I+F59I gave no signal (0 of 3 replicates). Variant F59T+Y60T+R100D gave 130 µM (2 of 3 replicates). Variant S31C+F59M+F105I showed no signal (0 of 3 replicates). Variant V50M+R56P+F59D showed 12 µM (3 of 3 replicates).

Variant F59I showed no signal (0 of 3 replicates). With T28E+F59Q+A102D the result was 220 nM (3 of 3 replicates). With L29G+F59Q+K65V the result was 12 µM (2 of 3 replicates). For N30Y+G33T+F59C, the assay gave no signal (0 of 3 replicates). For N30P+T58Y+F59I, the assay gave 17 µM (2 of 3 replicates).

Variant S53H+F59N+G61T showed no signal (0 of 3 replicates). Variant R57M+T58Y+F59N showed 45 µM (1 of 3 replicates). With T58Q+F59S+A101E the result was 210 nM (3 of 3 replicates). Variant T28R+F59Y+G61R gave 6.4 µM (3 of 3 replicates). With G33E+F59M+Y60K the result was no signal (0 of 3 replicates).

Variant L29S+F59D+S63K showed 30 µM (1 of 3 replicates). With S53L+F59Q+S107K the result was 27 µM (1 of 3 replicates). With Y52L+F59L+A101G the result was no signal (0 of 3 replicates). With T28S+V50D+F59Q the result was no signal (0 of 3 replicates). Variant T58R+F59E+K65L gave 140 nM (3 of 3 replicates).

Variant F59V+A102F+T104A gave no signal (0 of 3 replicates). For D54C+T58A+F59K, the assay gave 180 µM (1 of 3 replicates). Variant F59M+D62G+R100S gave 75 nM (3 of 3 replicates). Variant F59N+A102L+G103S gave no signal (0 of 3 replicates). Variant R56S+F59T+G99L gave 86 µM (2 of 3 replicates).

For R56Q+F59V+S63A, the assay gave 5.9 nM (3 of 3 replicates). Variant F59L+G99N+D106F gave 2.9 µM (3 of 3 replicates). With F59L+D62Y the result was no signal (0 of 3 replicates). Variant F59D+T104R gave no signal (0 of 3 replicates). Variant F59K gave 710 nM (3 of 3 replicates).

For S35E+F59E+S107R, the assay gave 15 µM (1 of 3 replicates). For G26Y+V50R+F59V, the assay gave no signal (0 of 3 replicates). For F59V+G99A+G103Y, the assay gave 120 nM (3 of 3 replicates). For V50Q+F59Q, the assay gave no signal (0 of 3 replicates). Variant T28L+N30G+F59Q showed no signal (0 of 3 replicates).

Parent in this assay: reference entry 4.4 nM, copy in this library 13 µM (one replicate of three).

Reference: Engelhart et al. 2022, doi:10.1038/s41597-022-01779-4. File: FLAb, binding data.